In PMC4057736, “In Vitro Antiprotozoal Activity of Abietane Diterpenoids Isolated from Plectranthus barbatus Andr” (International Journal of Molecular Sciences, 2014):

Legend:
Conditions in all cases: versus MRC-5 cytotoxicity
[1] = tested on: Trypanosoma brucei Squib-427 strain (suramin-sensitive) trypomastigotes; assay: Antitrypanosomal activity, resazurin readout; assay type: cell-based
Experimental: (§1) The integrated panel of microbial screens and standard screening methodologies were adopted as previously described. All assays were performed in triplicate, at the Laboratory of Microbiology, Parasitology and Hygiene at the University of Antwerp, Belgium. […] The selectivity antiprotozoal potential was assessed by simultaneous evaluation of cytotoxicity on a fibroblast (MRC-5) cell line.
(§2) About 1.5 × 10^4 trypomastigotes/well were added to each well and parasite growth was assessed after 72 h at 37 °C by adding resazurin [30]. […] The color reaction was read at 540 nm after 4 h and absorbance values were expressed as a percentage of the blank controls.

[2] = tested on: Chloroquine-resistant P. falciparum 2/K 1-strain (erythrocytic schizonts); assay: Antiplasmodial activity (Malstat method); assay type: cell-based, Plasmodium falciparum
Experimental: as §1
Chloroquine-resistant P. falciparum 2/K 1-strain was cultured in human erythrocytes O^+ at 37 °C under a low oxygen atmosphere (3% O2, 4% CO2, and 93% N2) in RPMI-1640, supplemented with 10% human serum. Infected human red blood cells (200 μL, 1% parasitaemia, 2% haematocrit) were added to each well and incubated for 72 h. After incubation, test plates were frozen at −20 °C. Parasite multiplication was measured by the Malstat method.

[3] = tested on: L.infantum MHOM/MA(BE)/67 amastigotes; assay: Antileishmanial activity, intracellular amastigotes in primary peritoneal mouse macrophages; assay type: cell-based, Leishmania infantum
Experimental: as §1
L.infantum MHOM/MA(BE)/67 amastigotes were collected from the spleen of an infected donor hamster and used to infect primary peritoneal mouse macrophages. To determine in vitro antileishmanial activity, 3 × 10^4 macrophages were seeded in each well of a 96-well plate. After 2 days outgrowth, 5 × 10^5 amastigotes/well were added and incubated for 2 h at 37 °C. Pre-diluted plant extracts were subsequently added and the plates were further incubated for 5 days at 37 °C and 5% CO2. Parasite burdens (mean number of amastigotes/macrophage) were microscopically assessed after Giemsa staining, and expressed as a percentage of the blank controls without plant extract.

[4] = tested on: T. cruzi Tulahuen CL2 (benznidazole-sensitive); assay: Antitrypanosomal activity (Chagas), β-galactosidase readout on MRC-5 cells; assay type: cell-based, Trypanosoma cruzi
Experimental: as §1, §2

| SMILES | T. brucei SI (selectivity index) [1] | P. falciparum SI (selectivity index) [2] | L. infantum SI (selectivity index) [3] | T. cruzi SI (selectivity index) [4] |
| --- | --- | --- | --- | --- |
| CC(C)c1cc2c(c(O)c1O)C13CCCC(C)(C)C1CC2OC3 (centres unmarked) [Compound (4), 20-deoxocarnosol] | 1.0 | – | – | – |
| CC(C)C1=CC2=C(O)C(O)=C3C(C)(C)CCC[C@]3(C)C2=C(O)C1=O [Compound (2), 5,6-didehydro-7-hydroxy-taxodone] | 50.5 | 10.4 | 3.7 | 3.7 |
